The values below come from PubChem BioAssay AID2171 (The Scripps Research Institute Molecular Screening Center, 2009).

Amino acid sequences for entries named in this document (tags omitted). A change or cut given only in a name is not applied to a line headed by its entry.
UniProt Q9Y570: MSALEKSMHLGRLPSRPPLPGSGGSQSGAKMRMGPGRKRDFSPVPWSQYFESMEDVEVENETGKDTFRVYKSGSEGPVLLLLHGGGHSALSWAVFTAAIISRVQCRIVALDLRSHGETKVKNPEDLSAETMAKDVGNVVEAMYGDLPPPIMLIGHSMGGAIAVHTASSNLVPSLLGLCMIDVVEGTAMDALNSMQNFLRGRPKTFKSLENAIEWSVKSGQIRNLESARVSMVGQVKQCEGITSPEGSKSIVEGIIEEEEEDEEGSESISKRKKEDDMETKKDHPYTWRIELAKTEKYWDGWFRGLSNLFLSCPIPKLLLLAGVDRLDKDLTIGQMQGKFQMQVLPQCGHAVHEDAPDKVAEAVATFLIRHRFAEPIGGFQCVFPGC

The list shows a part of the results, in another mix than the full data. Activity calls are given as the source filed them.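 How the source made its calls: active means inhibition above the hit cutoff set in the earlier primary screen (cut at about 27% in these data); inactive means the rest.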

This assay has as its target Protein phosphatase methylesterase 1 (Homo sapiens) (UniProt Q9Y570). As to the kind of experiment: PME-1 inhibitor activity retest, confirmation, biochemical, fluorescence polarization, FP-Rh probe, triplicate (AID 2171).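 Further: 0% = enzyme with DMSO and 100% = wells lacking PME-1.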 The note with it: recombinant PME-1, FP-Rh probe fluorescence polarization; at 5.9 µM; active compounds read high. In general terms: In fluorescence polarisation assays a small probe gives low polarisation when free and higher when bound to something large.
`CN(C)C(=O)c1cc([N+](=O)[O-])cc2c1-c1c(cc([N+](=O)[O-])cc1[N+](=O)[O-])C2=O`: the inhibition is active: 136%.

One may read the inhibition as the change of the read-out against control, counted positive when it falls.
